Species on record: Homo sapiens
Experiment: Protein binding in human plasma
Conditions: read-out: PPB (converted)

Row | Compound | fraction unbound
1 | CC(=O)N1C2C=C(CN3[C@@H]4CC[C@H]3C[C@H](Nc3ccc5ccc(OC(C)C)cc5n3)C4)CC1CCC2 | 0.033
2 | CC(=O)N1C2C=C(CN3[C@@H]4CC[C@H]3C[C@H](Nc3ccc5cc(C(F)(F)F)ccc5n3)C4)CC1CCC2 | 0.016
3 | CC(=O)N1C2C=C(CN3CCC(Nc4ccc5ccc(C(F)(F)F)cc5n4)CC3)CC1CCC2 (centres undefined) | 0.027
4 | CC(=O)N1C2C=C(CN3CCC(Nc4ccc5cc(OC(F)(F)F)ccc5n4)CC3)CC1CCC2 (centres undefined) | 0.045
